Assay results taken from US20080108641A1, “Compounds for treating inflammatory disorders, demyelinating disdorders and cancers” (priority 2006, published 2008).

Sequences of proteins named here, by UniProt entry; tags and fusion partners are left off. Residues count along the entry.
UniProt P36888, 27-993 limits assumed: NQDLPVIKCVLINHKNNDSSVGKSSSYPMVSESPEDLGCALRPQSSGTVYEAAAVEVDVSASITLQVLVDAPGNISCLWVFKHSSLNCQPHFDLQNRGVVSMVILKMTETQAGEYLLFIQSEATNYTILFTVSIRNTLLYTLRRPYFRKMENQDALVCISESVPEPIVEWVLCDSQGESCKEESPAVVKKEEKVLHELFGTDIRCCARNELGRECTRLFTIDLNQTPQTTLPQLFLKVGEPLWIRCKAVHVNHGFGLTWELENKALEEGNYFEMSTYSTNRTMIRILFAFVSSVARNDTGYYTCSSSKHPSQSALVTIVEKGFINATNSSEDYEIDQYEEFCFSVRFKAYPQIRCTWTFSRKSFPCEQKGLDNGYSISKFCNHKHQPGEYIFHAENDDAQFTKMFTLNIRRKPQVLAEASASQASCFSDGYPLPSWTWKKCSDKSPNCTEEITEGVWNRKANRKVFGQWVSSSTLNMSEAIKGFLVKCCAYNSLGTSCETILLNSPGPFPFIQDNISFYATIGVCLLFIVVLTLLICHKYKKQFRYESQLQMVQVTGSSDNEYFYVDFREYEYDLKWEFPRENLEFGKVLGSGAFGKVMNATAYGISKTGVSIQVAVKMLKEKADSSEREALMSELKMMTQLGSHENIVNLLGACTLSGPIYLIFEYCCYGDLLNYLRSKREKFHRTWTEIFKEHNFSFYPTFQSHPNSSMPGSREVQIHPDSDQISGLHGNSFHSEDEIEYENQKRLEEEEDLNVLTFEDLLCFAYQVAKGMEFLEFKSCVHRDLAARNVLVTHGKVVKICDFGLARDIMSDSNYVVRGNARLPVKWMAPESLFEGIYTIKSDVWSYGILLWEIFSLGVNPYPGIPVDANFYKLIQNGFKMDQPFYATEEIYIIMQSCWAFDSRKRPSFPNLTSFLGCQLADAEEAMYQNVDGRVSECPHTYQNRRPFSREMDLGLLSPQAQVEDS

Molecular target: FLT3 (Homo sapiens, UniProt P36888)
Assay: SelectScreen kinase assay against FLT3
Conditions: esters of formula (IB), ATP at 100 micromolar

- E1000 (percent inhibition at 1000 nMolar) (1000 nMolar): 74%
- EC50: 277 nM
Structure (SMILES): CCCCCCCC(=O)Oc1ccc2c(c1)c(=O)c1c(NCCN(CC)CC)ccc3ncn2c31
